Measured values as given in publication PMC13254535, “The RecBCD complex interacts directly with the DNA sliding clamp in Escherichia coli” (Nucleic Acids Research, 2026).

Target: T1, RecB nuclease motif peptide (KQVEMEFY) (Escherichia coli)
T1 construct: also called QVEMEF peptide; RecB-derived QVEMEF peptide; source: synthetic peptide; bought: TAG Copenhagen
T1 peptide: Ac-KQVEMEFY-NH2
Test: ITC; 278-294 µM β-clamp in the syringe titrated into 70.6 µM peptide in the cell; 20 mM sodium phosphate, 100 mM NaCl, 1 mM TCEP, 0.02% DMSO, pH 7.4, 25°C; one-site model; three replicates
Details: both partners purified

stoichiometry N: 0.39
B1: Escherichia coli β-clamp (DnaN), recombinantly expressed and purified (natural protein)
chain: MKFTVEREHLLKPLQQVSGPLGGRPTLPILGNLLLQVADGTLSLTGTDLEMEMVARVALVQPHEPGATTVPARKFFDICRGLPEGAEIAVQLEGERMLVRSGRSRFSLSTLPAADFPNLDDWQSEVEFTLPQATMKRLIEATQFSMAHQDVRYYLNGMLFETEGEELRTVATDGHRLAVCSMPIGQSLPSHSVIVPRKGVIELMRMLDGGDNPLRVQIGSNNIRAHVGDFIFTSKLVDGRFPDYRRVLPKNPDKHLEAGCDLLKQAFARAAILSNEKFRGVRLYVSENQLKITANNPEQEEAEEILDVTYSGAEMEIGFNVSYVLDVLNALKCENVRMMLTDSVSSVQIEDAASQSAAYVVMPMRL
notes: β-clamp (dnaN), E. coli; homodimer; Unlabeled in STD-NMR and ITC; 2H,13C,15N-labeled in the TROSY-HSQC experiments; also called DNA sliding clamp; source: recombinantly expressed and purified as previously described [54]
